Key:
[1] = Phase 1 clinical study: plasma pharmacokinetics after ketamine transdermal patch
[2] = Prediction of delivered dose and human PK from in vitro permeability and PK linearity; settings: predicted

## CNC1(c2ccccc2Cl)CCCCC1=O (racemic) [Ketamine, ketamine]
[1]; Mean
  normalized AUC ratio Stage 3/Stage 1: 1.16
[1]; Median
  normalized AUC ratio Stage 3/Stage 1: 1.23
[1]; Stage 1, Mean
  Plasma AUC normalized by patch area and duration, AUC/(cm2 · d): 3.62 (ng/mL · h)/(cm2 · d)
[1]; Stage 1, Median
  Plasma AUC normalized by patch area and duration, AUC/(cm2 · d): 3.73 (ng/mL · h)/(cm2 · d)
[1]; Stage 3, Mean
  Plasma AUC normalized by patch area and duration, AUC/(cm2 · d): 4.17 (ng/mL · h)/(cm2 · d)
[1]; Stage 3, Median
  Plasma AUC normalized by patch area and duration, AUC/(cm2 · d): 3.78 (ng/mL · h)/(cm2 · d)
[2]
  Cmax resulting from about 100 mg dose by ketamine transdermal delivery device: around 30 ng/mL
